Test results from PubChem BioAssay (NCI).
Only a part is listed here, and it is no random draw. Some compounds were tested as several samples or in several runs, with calls that do not always agree. Active and inactive are the calls of the source. No stated cut-off is given here; in the data, active means growth inhibition above about 70%; inactive means the rest.

What was measured:
[1] = NCI Yeast Anticancer Drug Screen. Data for the rad50 strain (AID 155);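 further: 0% = growth of vehicle-only cultures of the same strain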; conditions: S. cerevisiae rad50 strain growth inhibition, active compounds read high
[2] = NCI Yeast Anticancer Drug Screen. Data for the mec2-1 strain (AID 157); conditions: S. cerevisiae mec2-1 strain, active compounds read high
[3] = NCI Yeast Anticancer Drug Screen. Data for the sgs1 mgt1 strain (AID 161);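 further: 0% = growth of cultures given vehicle only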; conditions: S. cerevisiae sgs1 mgt1 strain, active compounds read high
[4] = NCI Yeast Anticancer Drug Screen. Data for the cln2 rad14 strain (AID 165);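 further: 0% = growth equal to vehicle treated cultures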; conditions: S. cerevisiae cln2 rad14 strain, active compounds read high
[5] = NCI Yeast Anticancer Drug Screen. Data for the bub3 strain (AID 167); conditions: S. cerevisiae bub3 mutant strain, active compounds read high
[6] = NCI Yeast Anticancer Drug Screen. Data for the mlh1 rad18 strain (AID 175); conditions: S. cerevisiae mlh1 rad18 strain growth inhibition, active compounds read high
[7] = at 5.0 µM (retest, dose inferred, filed as 0.5)
[8] = at 50.0 µM (retest, dose inferred, filed as 5.0)

Measured: growth inhibition

Cc1cccc(C[N+](C)(CCCl)CCCl)c1[N+](=O)[O-]
inactive: [1]; at 1.2 µM 31% | [1]; at 3.7 µM 56% | [1]; [7] 30% | [2]; at 1.2 µM -4% | [2]; at 3.7 µM -5% | [2]; [7] 5% | [2]; at 11.0 µM 23% | [3]; [7] 12% | [3]; [8] 65% | [3]; at 50.0 µM 69% | [4]; [7] 36% | [5]; at 1.2 µM -15% | [5]; at 3.7 µM -32% | [5]; [7] -6% | [5]; at 11.0 µM -29% | [5]; at 33.0 µM 8% | [5]; [8] 65% | [5]; at 50.0 µM 29.7% | [6]; [7] 47%
active: [1]; at 11.0 µM 86% | [1]; at 33.0 µM 95% | [1]; [8] 89% | [1]; at 50.0 µM 84.3% | [1]; at 100.0 µM 96% | [2]; at 33.0 µM 88% | [2]; [8] 90% | [2]; at 50.0 µM 85.8% | [2]; at 100.0 µM 95% | [4]; [8] 88% | [4]; at 50.0 µM 79.7% | [5]; at 100.0 µM 80% | [6]; [8] 93% | [6]; at 50.0 µM 86.5%

CCCCP(=O)(Cl)N(CCCl)CCCl (configuration not stated)
inactive: [1]; [7] 6% | [1]; [8] 17% | [1]; at 50.0 µM 8.1% | [2]; [7] -2% | [2]; [8] 1% | [2]; at 50.0 µM 12.8% | [3]; [7] -34% | [3]; [8] 1% | [3]; at 50.0 µM 4.75% | [4]; [7] -1% | [4]; [8] 2% | [5]; [7] -2% | [5]; [8] -3% | [5]; at 50.0 µM -7.2% | [6]; [7] -1% | [6]; [8] 4% | [6]; at 50.0 µM 25.3%
active: [4]; at 50.0 µM 71.4%

OCC#CCN(CCBr)CCBr
inactive: [1]; at 50.0 µM 9.3% | [2]; at 50.0 µM -11.6% | [3]; at 50.0 µM 14.3% | [4]; at 50.0 µM 1% | [5]; at 50.0 µM 32.5% | [6]; at 50.0 µM -51.8%

O=Cc1cc(N(CCCl)CCCl)ccc1O
inactive: [1]; [7] 4% | [1]; [8] 30% | [1]; at 50.0 µM 32.2% | [2]; [7] -3% | [2]; [8] 18% | [2]; at 50.0 µM 7.8% | [3]; [7] 7% | [3]; [8] 33% | [3]; at 50.0 µM 9.6% | [4]; [7] -8% | [4]; [8] 14% | [4]; at 50.0 µM 22.9% | [5]; [7] -5% | [5]; [8] -1% | [5]; at 50.0 µM 12.5% | [6]; [7] 6% | [6]; [8] 43% | [6]; at 50.0 µM 62.8%

CN1CC(C(C)(C)C)COP1(=O)N(CCCl)CCCl (configuration not stated)
inactive: [1]; at 50.0 µM 2.75% | [2]; at 50.0 µM 2% | [3]; at 50.0 µM -10.6% | [4]; at 50.0 µM 7.55% | [5]; at 50.0 µM 9.4% | [6]; at 50.0 µM 13.2%

COc1cccc(N(CCCl)CCCl)c1
inactive: [1]; at 50.0 µM 44.4% | [2]; at 50.0 µM 12.7% | [3]; at 50.0 µM 21.8% | [4]; at 50.0 µM 8.15% | [5]; at 50.0 µM 18.3% | [6]; at 50.0 µM 19.4%

Cc1ccccc1NC1(C#N)CCN(Cc2ccccc2)CC1
inactive: [1]; at 50.0 µM -0.95% | [2]; at 50.0 µM -32.8% | [3]; at 50.0 µM -11.9% | [4]; at 50.0 µM 23.9% | [5]; at 50.0 µM -13.8% | [6]; at 50.0 µM 7.3%

CN(C)c1ccc(N(CCCl)CCCl)cc1
inactive: [1]; at 50.0 µM 23.1% | [2]; at 50.0 µM 3.25% | [3]; at 50.0 µM 7.1% | [4]; at 50.0 µM 33.7% | [5]; at 50.0 µM 25.9% | [6]; at 50.0 µM -18.5%

CCOc1ccc(N(CCCl)CCCl)cc1
inactive: [1]; at 50.0 µM -1.3% | [2]; at 50.0 µM 10.2% | [3]; at 50.0 µM -17.2% | [4]; at 50.0 µM -0.8% | [5]; at 50.0 µM 1.45% | [6]; at 50.0 µM -19.4%

c1ccc(CN2CCC(Nc3ccccc3)CC2)cc1
inactive: [1]; at 50.0 µM 44% | [2]; at 50.0 µM 36.5% | [3]; at 50.0 µM 60% | [4]; at 50.0 µM 51.5% | [5]; at 50.0 µM 53.8% | [6]; at 50.0 µM 44%

CC(C)=NOP(N)(=O)N(CCCl)CCCl (configuration not stated)
inactive: [1]; at 50.0 µM -18.3% | [2]; at 50.0 µM -33.5% | [3]; at 50.0 µM -24.6% | [4]; at 50.0 µM -8.6% | [5]; at 50.0 µM -36.6% | [6]; at 50.0 µM -58.2%

Oc1c(CN(CCCl)CCCl)cc(Cl)c2cccnc12
active: [1]; at 50.0 µM 98.5% | [2]; at 50.0 µM 98.7% | [3]; at 50.0 µM 98.6% | [4]; at 50.0 µM 97.9% | [5]; at 50.0 µM 98.6% | [6]; at 50.0 µM 98.4%

O=C(O)CCOc1ccccc1N(CCCl)CCCl
inactive: [1]; at 50.0 µM -18.4% | [2]; at 50.0 µM -7.15% | [3]; at 50.0 µM -21.9% | [4]; at 50.0 µM 7.05% | [5]; at 50.0 µM 18.1% | [6]; at 50.0 µM -10.8%

Cc1ccc(S(=O)(=O)CN(CCBr)CCBr)cc1
active: [1]; at 50.0 µM 81% | [2]; at 50.0 µM 76.2% | [3]; at 50.0 µM 88.8% | [4]; at 50.0 µM 82.7% | [5]; at 50.0 µM 86.2% | [6]; at 50.0 µM 92%

CC(=O)c1ccc(N2CCC(OC(=O)C(O)(c3ccccc3)c3ccccc3)CC2)cc1
inactive: [1]; at 50.0 µM 40.5% | [2]; at 50.0 µM 43.4% | [3]; at 50.0 µM 45.2% | [4]; at 50.0 µM 46.4% | [5]; at 50.0 µM 33.2% | [6]; at 50.0 µM 48.9%

Cc1ccc(N(CCI)CCI)cc1
inactive: [1]; at 50.0 µM 8.2% | [2]; at 50.0 µM -20.9% | [3]; at 50.0 µM 6.75% | [4]; at 50.0 µM 24.1% | [5]; at 50.0 µM 5.85% | [6]; at 50.0 µM 27.6%

Nc1nc2c(ncn2CCN(CCCl)CCCl)c(=O)[nH]1
inactive: [1]; at 50.0 µM 18.4% | [2]; at 50.0 µM -6.7% | [3]; at 50.0 µM 3.4% | [4]; at 50.0 µM -10.1% | [5]; at 50.0 µM -12.8% | [6]; at 50.0 µM 23.3%

Nc1cc(N)cc(N(CCCl)CCCl)c1
inactive: [1]; at 50.0 µM 34.4% | [2]; at 50.0 µM 10.1% | [3]; at 50.0 µM 31.6% | [4]; at 50.0 µM 31.1% | [5]; at 50.0 µM 6.9% | [6]; at 50.0 µM 42.9%

O=[N+]([O-])c1ncc(N(CCCl)CCCl)s1
inactive: [1]; at 50.0 µM 28.2% | [2]; at 50.0 µM -2.4% | [3]; at 50.0 µM 34.1% | [4]; at 50.0 µM 1.8% | [5]; at 50.0 µM -15% | [6]; at 50.0 µM -5.95%

ClCCSC(SCCCl)=C(SCCCl)SCCCl
inactive: [1]; at 50.0 µM 17.1% | [2]; at 50.0 µM 18.6% | [3]; at 50.0 µM 4.85% | [4]; at 50.0 µM -15.2% | [5]; at 50.0 µM -0.45% | [6]; at 50.0 µM 20.6%

Cc1ccc(NC2(C#N)CCN(Cc3ccccc3)CC2)cc1
inactive: [1]; at 50.0 µM -27.2% | [2]; at 50.0 µM -22.6% | [3]; at 50.0 µM -15.8% | [4]; at 50.0 µM -10.6% | [5]; at 50.0 µM 3.2% | [6]; at 50.0 µM -22%
